Results: US20140171427A1, “Heterocyclic chromene-spirocyclic piperidine amides as modulators of ion channels” (VERTEX PHARMACEUTICALS INCORPORATED, priority 2010, published 2014)

Target: human NaV subtype
Assay: E-VIPR optical membrane potential assay with electrical stimulation
Settings: read-out: Binned Activity Data (IC50); active against one or more sodium channels; assay and NaV subtype not specified for Table 3
Excerpt: E-VIPR Optical Membrane Potential Assay Method with Electrical Stimulation
Sodium channels are voltage-dependent proteins that can be activated by inducing membrane voltage changes by applying electric fields. The electrical stimulation instrument and methods of use are described in Ion Channel Assay Methods PCT/US01/21652, herein incorporated by reference and are referred to as E-VIPR. The instrument comprises a microtiter plate handler, an optical system for exciting the coumarin dye while simultaneously recording the coumarin and oxonol emissions, a waveform generator, a current- or voltage-controlled amplifier, and a device for inserting electrodes in well. Under integrated computer control, this instrument passes user-programmed electrical stimulus protocols to cells within the wells of the microtiter plate.
24 hours before the assay on E-VIPR, HEK cells expressing human NaV subtype, like NaV 1.7, are seeded in 384-well poly-lysine coated plates at 15,000-20,000 cells per well. Other subtypes are performed in an analogous mode in a cell line expressing the NaV of interest. HEK cells are grown in media (exact composition is specific to each cell type and NaV subtype) supplemented with 10% FBS (Fetal Bovine Serum, qualified; GibcoBRL #16140-071) and 1% Pen-Strep (Penicillin-Streptomycin; GibcoBRL #15140-122). Cells are grown in vented cap flasks, in 90% humidity and 10% CO2, to 100% confluence. They are usually split by trypsinization 1:10 or 1:20, depending on scheduling needs, and grown for 2-3 days before the next split.
100 mg/mL Pluronic F-127 (Sigma #P2443), in dry DMSO
Compound Plates: 384-well round bottom plate, e.g. Corning 384-well Polypropylene Round Bottom #3656
Cell Plates: 384-well tissue culture treated plate, e.g. Greiner #781091-1B
Bath1 buffer. Glucose 10 mM (1.8 g/L), Magnesium Chloride (Anhydrous), 1 mM (0.095 g/L), Calcium Chloride, 2 mM (0.222 g/L), HEPES 10 mM (2.38 g/L), Potassium Chloride, 4.5 mM (0.335 g/L), Sodium Chloride 160 mM (9.35 g/L).
Hexyl Dye Solution: Bath1 Buffer+0.5% β-cyclodextrin (make this prior to use, Sigma #C4767), 8 μM CC2-DMPE+DiSBAC6(3). To make the solution Add volume of 10% Pluronic F127 stock equal to volumes of CC2-DMPE+DiSBAC6(3). The order of preparation is first mix Pluronic and CC2-DMPE, then add DiSBAC6(3) while vortexing, then add Bath1+β-Cyclodextrin.
1) Pre-spot compounds (in neat DMSO) into compound plates. Vehicle control (neat DMSO), the positive control (20 mM DMSO stock tetracaine, 125 μM final in assay) and test compounds are added to each well at 160× desired final concentration in neat DMSO. Final compound plate volume will be 80 μL (80-fold intermediate dilution from 1 μL DMSO spot; 160-fold final dilution after transfer to cell plate). […]
7) Read Plate on E-VIPR. […]

| SMILES | IC50 [nM] |
| --- | --- |
| COc1cc(C(=O)N2CCC3(CC2)Oc2cc(Cl)ccc2-n2cccc23)ccc1CCO | < 2000 |
| CC(C)Oc1ccc(C(=O)N2CCC3(CC2)Oc2ccccc2-n2cccc23)cc1C(F)(F)F | < 2000 |
| CCn1ncc2c1-c1ccccc1OC21CCN(C(=O)c2cccc(F)c2OC(F)F)CC1 | < 2000 |
| CC(C)(C)S(=O)(=O)c1ccc(C(=O)N2CCC3(CC2)Oc2ccccc2-c2nn(C(F)(F)F)cc23)cc1 | < 2000 |
